Results reported in ChEMBL document CHEMBL1649412, “Discovery and SAR of 5-(3-chlorophenylamino)benzo[c][2,6]naphthyridine-8-carboxylic acid (CX-4945), the first clinical stage inhibitor of protein kinase CK2 for the treatment of cancer” (J Med Chem, 2011).

The chains behind the UniProt entries cited, without tags or fusion partners.
UniProt P19784, whole entry: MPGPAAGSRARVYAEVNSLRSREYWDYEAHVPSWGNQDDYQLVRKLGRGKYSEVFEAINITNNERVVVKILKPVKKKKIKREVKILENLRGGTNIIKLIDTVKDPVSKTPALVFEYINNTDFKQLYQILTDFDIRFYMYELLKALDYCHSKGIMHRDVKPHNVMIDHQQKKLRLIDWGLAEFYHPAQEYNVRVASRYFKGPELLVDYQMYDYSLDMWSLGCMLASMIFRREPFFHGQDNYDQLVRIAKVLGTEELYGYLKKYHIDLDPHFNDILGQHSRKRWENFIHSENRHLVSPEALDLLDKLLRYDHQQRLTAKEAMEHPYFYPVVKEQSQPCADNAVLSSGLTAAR
UniProt P67870, whole entry: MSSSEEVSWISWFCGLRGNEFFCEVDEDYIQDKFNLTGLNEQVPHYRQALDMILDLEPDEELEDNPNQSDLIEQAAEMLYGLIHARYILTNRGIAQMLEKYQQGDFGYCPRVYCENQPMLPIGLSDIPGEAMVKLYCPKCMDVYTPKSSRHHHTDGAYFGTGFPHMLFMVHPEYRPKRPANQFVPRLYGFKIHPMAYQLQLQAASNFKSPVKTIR
UniProt P68400, whole entry: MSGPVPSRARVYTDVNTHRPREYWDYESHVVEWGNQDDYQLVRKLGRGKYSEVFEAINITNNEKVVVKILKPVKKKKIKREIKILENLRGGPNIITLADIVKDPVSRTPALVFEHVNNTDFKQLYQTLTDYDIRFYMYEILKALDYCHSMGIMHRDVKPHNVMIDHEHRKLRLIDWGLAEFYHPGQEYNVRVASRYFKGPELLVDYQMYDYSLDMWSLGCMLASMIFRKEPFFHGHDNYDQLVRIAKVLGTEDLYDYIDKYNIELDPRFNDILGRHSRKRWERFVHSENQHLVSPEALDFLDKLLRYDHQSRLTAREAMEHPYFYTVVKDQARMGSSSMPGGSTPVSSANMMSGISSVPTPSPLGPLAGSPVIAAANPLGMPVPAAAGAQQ

biological target: Casein kinase II (Homo sapiens, UniProt P19784+P67870+P68400); test: Inhibition of human recombinant CK2 assessed as inhibition of [gamma33P]ATP incorporation into substrate by […]; assay type: protein-complex assay

Row | Compound | pIC50
1 | COC(=O)c1ccc2c(c1)nc(Nc1cccc(Cl)c1)c1ccncc12 | < 6.30
2 | NC(=O)c1ccc2c(c1)[nH]c(=O)c1ccsc12 | < 4.60
3 | O=c1[nH]c2cc(CO)ccc2c2sccc12 | < 4.60

pIC50: −log10 of the molar value.
